Values quoted from earlier work, collected in patent publication US20220257540A1, “COMPOSITIONS AND METHODS FOR TREATMENT OF HEPATITIS B VIRUS INFECTION” (ANHUI RONGHANG BIOTECH DEVELOPMENT CO., LTD., priority 2019, published 2022).

The chains behind the UniProt entries cited, without tags or fusion partners.
UniProt P08183, whole entry: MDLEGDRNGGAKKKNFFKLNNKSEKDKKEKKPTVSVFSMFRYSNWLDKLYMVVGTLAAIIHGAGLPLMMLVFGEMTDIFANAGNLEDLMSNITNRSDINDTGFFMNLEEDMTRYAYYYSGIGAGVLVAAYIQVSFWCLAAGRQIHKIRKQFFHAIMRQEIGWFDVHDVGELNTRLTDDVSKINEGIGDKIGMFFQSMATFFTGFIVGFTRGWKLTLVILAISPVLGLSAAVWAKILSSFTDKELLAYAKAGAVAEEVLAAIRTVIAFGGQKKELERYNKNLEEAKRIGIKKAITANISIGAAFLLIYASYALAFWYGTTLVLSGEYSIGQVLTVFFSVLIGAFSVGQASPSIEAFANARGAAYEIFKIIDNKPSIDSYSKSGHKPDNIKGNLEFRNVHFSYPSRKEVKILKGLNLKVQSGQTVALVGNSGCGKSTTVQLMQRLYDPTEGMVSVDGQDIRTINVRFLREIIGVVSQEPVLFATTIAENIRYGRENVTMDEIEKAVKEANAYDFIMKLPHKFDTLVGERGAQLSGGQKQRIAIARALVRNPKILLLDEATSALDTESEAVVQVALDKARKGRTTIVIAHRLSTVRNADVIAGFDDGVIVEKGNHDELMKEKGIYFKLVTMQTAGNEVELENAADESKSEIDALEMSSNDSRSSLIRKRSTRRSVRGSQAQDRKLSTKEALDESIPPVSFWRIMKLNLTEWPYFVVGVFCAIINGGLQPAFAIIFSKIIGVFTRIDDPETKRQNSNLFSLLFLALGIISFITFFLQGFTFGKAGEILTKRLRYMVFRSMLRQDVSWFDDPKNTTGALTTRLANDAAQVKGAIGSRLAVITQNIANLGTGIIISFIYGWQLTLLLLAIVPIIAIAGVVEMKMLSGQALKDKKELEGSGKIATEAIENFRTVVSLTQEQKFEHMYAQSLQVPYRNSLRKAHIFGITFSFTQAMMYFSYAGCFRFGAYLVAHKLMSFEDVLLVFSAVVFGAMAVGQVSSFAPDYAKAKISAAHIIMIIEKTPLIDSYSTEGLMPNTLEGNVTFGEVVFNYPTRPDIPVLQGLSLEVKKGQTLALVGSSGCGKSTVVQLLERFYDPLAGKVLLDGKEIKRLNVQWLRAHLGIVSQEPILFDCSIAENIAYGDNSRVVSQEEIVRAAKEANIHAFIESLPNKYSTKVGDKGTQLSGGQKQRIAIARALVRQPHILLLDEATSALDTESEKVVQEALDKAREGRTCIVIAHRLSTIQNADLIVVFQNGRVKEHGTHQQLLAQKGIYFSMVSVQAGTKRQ

Biological target: P-gp (Homo sapiens, UniProt P08183)
Conditions: cited from earlier work

SMILES: Cl.Cl.Cl.O[C@@H](COc1cccc2ncccc12)CN1CCN([C@@H]2c3ccccc3[C@@H]3[C@H](c4ccccc42)C3(F)F)CC1 [LY335979, (2R)-1-{4-[(1aR,6r,10bS)-1,1-Difluoro-1,1a,6,10b-tetrahydrodibenzo[a,e]cy-clopropa[c]cyclohepten-6-yl]piperazin-1-yl}-3-(quinolin-5-yloxy)propan-2-o-1,trihydrochloride]
- potency relative to the first and second-generation P-gp inhibitors: about 10 fold
